# Source: PubChem BioAssay AID2355 (The Scripps Research Institute Molecular Screening Center, 2010)
# Protein sequences, listed by entry. Tags and fused reporters are not part of them.
# UniProt P62136, whole entry: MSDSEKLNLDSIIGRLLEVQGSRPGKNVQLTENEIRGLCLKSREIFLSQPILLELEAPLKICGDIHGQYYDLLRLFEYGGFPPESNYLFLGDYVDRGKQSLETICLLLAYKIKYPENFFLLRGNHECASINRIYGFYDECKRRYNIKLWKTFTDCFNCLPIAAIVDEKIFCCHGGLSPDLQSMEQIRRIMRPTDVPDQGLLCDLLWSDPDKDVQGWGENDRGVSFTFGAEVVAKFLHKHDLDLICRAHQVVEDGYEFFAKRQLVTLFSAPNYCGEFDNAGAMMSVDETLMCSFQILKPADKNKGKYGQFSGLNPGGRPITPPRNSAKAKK
# This is a selection; strong and weak results do not stand in their true shares. The source made the active and inactive calls. Cut-off read from the data, not from the text of the source: active = inhibition above about 16%; inactive = the rest.
# Target: Serine/threonine-protein phosphatase PP1-alpha catalytic subunit (Homo sapiens) (UniProt P62136)
# Test: human PP1 catalytic activity blockade – biochemical, fluorescence, triplicate, counter-screen for PP5 inhibitor project (AID 2355)
# Conditions: PP1 enzyme, fluorescent phosphatase substrate; at 6.7 µM; stronger effect = higher value
compound,measurement,value
Cc1cc(C)cc(OP(C)(N)=O)c1 (stereo unspecified),inhibition,inactive: 0.37%
